Tn7 DDE FP – DD(E)-Tn7 binding inhibition, primary FP screen. FP displacement of FITC-Tn7 peptide from fibrin DD(E); 0% = median of compound wells per plate. 370,000 compounds, 0.13% hits. inhibition, % at 8.3 µM. AID 720508;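 active means inhibition above the mean of compounds falling within the control limits plus 3 SD of them, cut at about 14% in these data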;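 further: 0% = plate median of compound wells and 100% = 10 µM Aha-Tn7 peptide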
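Test system – human fibrin DD(E) · Times – 10 min preincubation, 3 h with tracer, room temperature · Detection – fluorescence polarization of the labelled Tn7 tracer · Measure – percent inhibition normalized to high-control wells · Benchmarks – high control wells with 10 µM unlabelled Aha-Tn7 peptide (full inhibition) · Repeats – singlicate testing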
PglD inh – inhibitors of Campylobacter jejuni PglD acetyltransferase. purified PglD enzyme, DTNB colorimetric CoA detection. inhibition, % at 12.5 µM. 360,000 compounds, 0.098% hits. AID 602405; in the data active means inhibition above about 16%, passing the limit was not always enough
Tn6 DDE FP – disrupts Tn6 cyclic peptide binding to fibrin D-Dimer-E complex; P02675; inhibition, % at 8.3 µM; Fibrin DD(E) TRITC-Tn6 fluorescence polarization displacement; 370,000 compounds, 0.21% hits;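 active means inhibition above a per-campaign cutoff: mean of compounds within control limits plus 3 SD, cut at about 15% in these data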;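 further: 0% = median of all compound wells on the plate and 100% = blocking peptide control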
Yeast UUG start – alters start codon recognition fidelity in yeast; S. cerevisiae UUG-firefly luciferase reporter, luminescence/redox ratio; activity score, % at 18.7 µM; actives 0.13% (n = 350,000); AID 602363;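 active = replicate mean at a twofold rise or more, about +100% in these data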;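 also: firefly luciferase made from a UUG start codon reports start codon fidelity; reporter light over untreated wells divided by growth signal over untreated wells; some hits fall short of that in this replicate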
DDE Tn6 FP ctr – DD(E)-Tn6 binding inhibition, counter-screen; Fibrin DD(E), TRITC-Tn6 fluorescence polarization displacement; 0% = median of compound wells, not DMSO; 680 compounds, 2% hits; AID 720621; shares compounds with Tn6 DDE FP; inhibition, % at 8.3 µM;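 active means inhibition above the mean of test compounds lying between the control limits plus 3 SD of those, cut at about 14% in these data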;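 further: 0% = median of compound wells and 100% = wells with Aha-Tn7 blocking peptide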
Tn6 DDE conf – DD(E)-Tn6 binding inhibition, FP confirmation. 680 compounds, 10% hits. FP displacement of TRITC-Tn6 peptide from DD(E); 0% = per-plate median of test wells. shares compounds with Tn6 DDE FP. inhibition, % at 8.3 µM;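 active means inhibition above the mean of compounds lying within the control limits plus 3 SD, cut at about 16% in these data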;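 further: 100% = high control wells holding a competing inhibitor peptide at 10 µM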
Active calls of the source: *; nt = no result given. In the library only some 0.45% were active in any assay of this set; here they are far more common.

cpd | SMILES | DDE Tn6 FP ctr | Tn7 DDE FP | Tn6 DDE conf | PglD inh | Tn6 DDE FP | Yeast UUG start
1 | c1ccc2c(c1)ncn2CCC1CCCCC1 | 7.8 | 6.7 | 1.9 | 4.0 | 17.6* | -24.5
2 | NC(=O)CCn1cnc2ccccc21 | nt | -2.2 | nt | nt | -0.4 | nt
3 | Cc1ccc(S(=O)(=O)N2CCN(C(=O)COC(=O)C3CCC3)CC2)cc1 | 10.8 | 2.9 | 4.1 | nt | 17.8* | nt
4 | CC(C)NC(=O)N[C@H]1C=C[C@@H](CC(=O)NCCCN(C)C)O[C@H]1CO | nt | nt | nt | -2.2 | nt | -8.4
5 | COc1ccc(C(=O)N/C=C/n2cnc3cc(C(F)(F)F)ccc32)cc1 | 3.4 | 10.8 | -0.1 | -0.9 | 15.5* | -21.8
6 | O=S(=O)(N[C@@H]1CC[C@@H](CCNS(=O)(=O)c2ccccc2Cl)O[C@@H]1CO)c1ccccc1 | nt | nt | nt | -3.0 | nt | 11.5
7 | CCCC(=O)Nc1cc(OC)c(NC(=S)Nc2ccc(CC)cc2)cc1OC | 3.8 | 4.3 | 3.2 | 4.0 | 36.0* | -16.5
8 | CCc1ccc(NC(=S)Nc2cc(OC)c(NC(=O)C(C)C)cc2OC)cc1 | 2.5 | -5.0 | 2.1 | nt | 25.0* | nt
9 | Cc1cccc(NC(=S)Nc2cccc3ccccc23)c1 | nt | -4.8 | nt | 1.8 | -7.3 | -21.7
10 | CCCC(=O)Nc1cc(OC)c(NC(=S)Nc2cccc(C)c2)cc1OC | -2.6 | -3.4 | -18.2 | -2.1 | 26.5* | -12.4
11 | O=C(Nc1ccc(F)cc1)Nc1ccc2c(c1)[C@H]1C[C@@H](CC(=O)N3CCCCC3)O[C@H](CO)[C@H]1O2 | nt | nt | nt | 3.1 | nt | -3.6
12 | COc1ccc(C2=Nn3c(nnc3-c3ccncc3)SC2)cc1OC | -1.8 | -4.3 | -5.6 | 4.6 | 19.2* | -5.0
13 | O=C(Nc1ccccc1)Nc1ccc2c(c1)[C@H]1C[C@@H](CC(=O)N3CCOCC3)O[C@H](CO)[C@H]1O2 | nt | nt | nt | 12.5 | nt | -3.3
14 | O=C(C[C@H]1C[C@H](C(=O)N2CCOCC2)[C@@]2(CCC3CCCC3)c3[nH]c4cc(-c5ccco5)ccc4c3CCN2C1=O)NCc1cccc(C(F)(F)F)c1 | nt | 3.6 | nt | -2.5 | 2.9 | 3.7
15 | COc1ccc(CNC(=O)C[C@H]2C[C@H](C(=O)N3CCOCC3)[C@@]3(CCC4CCCC4)c4[nH]c5cc(-c6ccco6)ccc5c4CCN3C2=O)cc1OC | 7.3 | 6.1 | 3.3 | -2.3 | 16.1* | 4.0
16 | COc1ccc(CN(C)C[C@@H]2OCCCC[C@H](C)Oc3ccc(NS(=O)(=O)c4ccc(OC)cc4)cc3C(=O)N([C@@H](C)CO)C[C@@H]2C)cc1 | nt | nt | nt | -1.6 | nt | 6.6

By substructure, the compounds so far with a furan ring, fused or not
cpd | SMILES | DDE Tn6 FP ctr | Tn7 DDE FP | Tn6 DDE conf | PglD inh | Tn6 DDE FP | Yeast UUG start
14 | O=C(C[C@H]1C[C@H](C(=O)N2CCOCC2)[C@@]2(CCC3CCCC3)c3[nH]c4cc(-c5ccco5)ccc4c3CCN2C1=O)NCc1cccc(C(F)(F)F)c1 | nt | 3.6 | nt | -2.5 | 2.9 | 3.7
15 | COc1ccc(CNC(=O)C[C@H]2C[C@H](C(=O)N3CCOCC3)[C@@]3(CCC4CCCC4)c4[nH]c5cc(-c6ccco6)ccc5c4CCN3C2=O)cc1OC | 7.3 | 6.1 | 3.3 | -2.3 | 16.1* | 4.0

Following part
cpd | SMILES | DDE Tn6 FP ctr | Tn7 DDE FP | Tn6 DDE conf | PglD inh | Tn6 DDE FP | Yeast UUG start
17 | CO[C@H]1CN(C)C(=O)c2ccc(NC(=O)Nc3ccccc3F)cc2OC[C@@H](C)N(C(C)=O)C[C@@H]1C | nt | nt | nt | -2.1 | nt | 13.0
18 | CCNc1ccccc1CP(=O)(c1ccccc1)c1ccccc1O (stereo not given) | 4.1 | 9.7 | -8.9 | nt | 20.7* | nt
19 | CCOC(=O)Nc1ccc2c(c1)Cc1cc([N+](=O)[O-])ccc1-2 | -2.4 | -9.1 | -10.2 | nt | 17.5* | nt
20 | CCOC(=O)Nc1ccc(OC)c([N+](=O)[O-])c1 | nt | 6.5 | nt | -2.0 | -0.6 | -16.5
21 | CC(=O)N[C@H]1C=C[C@H](CC(=O)NCc2ccc(Cl)cc2)O[C@H]1CO | nt | nt | nt | 2.6 | nt | -14.7
22 | CSc1cccc(NC(=O)NCc2cccc(CNC(=O)Nc3cccc(SC)c3)c2)c1 | 5.1 | 8.4 | -4.1 | nt | 27.0* | nt
23 | CSc1cccc(NC(=O)C(=O)NCc2ccccc2)c1 | nt | 7.0 | nt | 5.0 | -3.9 | -4.3
24 | COc1ccc(-c2nnc3sc(-c4ccco4)nn23)cc1OC | 7.9 | 3.5 | -6.0 | 4.5 | 15.3* | -4.4

Reprinted at random: three records from the list.
cpd | SMILES | DDE Tn6 FP ctr | Tn7 DDE FP | Tn6 DDE conf | PglD inh | Tn6 DDE FP | Yeast UUG start
23 | CSc1cccc(NC(=O)C(=O)NCc2ccccc2)c1 | nt | 7.0 | nt | 5.0 | -3.9 | -4.3
17 | CO[C@H]1CN(C)C(=O)c2ccc(NC(=O)Nc3ccccc3F)cc2OC[C@@H](C)N(C(C)=O)C[C@@H]1C | nt | nt | nt | -2.1 | nt | 13.0
18 | CCNc1ccccc1CP(=O)(c1ccccc1)c1ccccc1O (stereo not given) | 4.1 | 9.7 | -8.9 | nt | 20.7* | nt

The results go on.
cpd | SMILES | DDE Tn6 FP ctr | Tn7 DDE FP | Tn6 DDE conf | PglD inh | Tn6 DDE FP | Yeast UUG start
25 | C/C=C/c1cnc2c(c1)C(=O)N([C@@H](C)CO)C[C@H](C)[C@@H](CN(C)C(=O)CN1CCOCC1)O2 | nt | nt | nt | -0.5 | nt | -4.0
26 | O=C(N/N=C/c1cccnc1)C(=O)N1CCCCCC1 | -2.5 | 6.8 | -4.5 | 3.2 | 15.2* | -10.7
27 | CC[C@H]1CN2CCc3cc(OC)c(OC)cc3C2C[C@@H]1C[C@H]1NCCc2cc(OC)c(OC)cc21 (stereo not given in full) | nt | 4.3 | nt | 1.0 | -2.8 | -1.4
28 | CCC1=C(CC2NCCc3ccccc32)CC2c3cc(OC)c(OC)cc3CCN2C1 (stereo not given) | 3.5 | 8.7 | 2.5 | nt | 23.5* | nt
29 | COC(=O)c1ccc2c(c1)C(C)(C)C(/C=C/c1ccc(O)cc1)=[N+]2C | -43.7 | -28.1 | -25.2 | nt | 63.9* | nt
30 | COC(=O)c1ccc2c(c1)C(C)(C)C(/C=C/c1ccc(OC)c(OC)c1OC)=[N+]2C | -10.9 | -29.3 | -16.7 | nt | 129.5* | nt
31 | COc1cc(/C=C/c2ccc(O)cc2)cc(OC)c1 | nt | 0.6 | nt | -6.4 | -2.7 | 3.9
32 | COc1cccc(C(=O)Nc2ccc3c(c2)C(=O)N(C)C[C@H](OC)[C@@H](C)CN[C@H](C)CO3)c1 | nt | nt | nt | -2.7 | nt | nt
33 | O=C(N[C@H]1CC[C@@H](CCNS(=O)(=O)c2ccc(F)cc2)O[C@H]1CO)C1CCOCC1 | nt | nt | nt | -1.2 | nt | 6.0
34 | CCOc1ccc(Nc2ccc(N)c(S(=O)(=O)O)c2)cc1 | -6.5 | 10.2 | -10.6 | 0.3 | 22.2* | -6.0
35 | Cc1cc(C(=O)COc2ccccc2C(N)=O)c(C)n1C | nt | -3.6 | nt | nt | 1.1 | nt
36 | Cc1cc(C(=O)COc2cccc3cccnc23)c(C)n1C | 9.6 | 4.9 | 5.6 | 0.6 | 29.6* | -21.9
37 | COc1cc([N+](=O)[O-])cc(/C=C2/SC(=S)N(Cc3ccccc3)C2=O)c1O | 0.3 | 1.3 | 33.9* | 1.5 | 56.3* | -24.5
38 | CCN(CC)c1ccc(C(=O)c2ccccc2C(=O)O)c(O)c1 | 2.2 | -2.5 | 14.7 | -3.8 | 15.2* | -10.2
39 | CCN(CC)c1ccc(/C=N/N(c2ccccc2)c2ccccc2)c(O)c1 | nt | -1.6 | nt | 2.4 | 7.4 | -12.2
40 | COc1cccc(NC(=O)N2C[C@H](O)COC[C@H]3O[C@H](CC(=O)NCCCN4CCOCC4)CC[C@@H]32)c1 | nt | nt | nt | 0.8 | nt | nt
41 | O=C(Nc1ccccc1)C1CC(=O)N(Cc2ccccc2)C1 (stereo not given) | nt | 0.7 | nt | -0.6 | 0.2 | -12.8
42 | CC(=O)c1ccc(NC(=O)C2CC(=O)N(Cc3ccccc3)C2)cc1 (stereo not given) | -1.9 | 6.0 | -2.8 | 1.4 | 15.7* | -2.8
43 | CN(CCc1ccccc1)C1CCCN(C(=O)Cn2cccn2)C1 (stereo not given) | -6.4 | 6.7 | -10.3 | -6.2 | 16.8* | -9.7
44 | COc1ccc(CCN(C)C2CCCN(C(=O)Cn3cccn3)C2)cc1OC (stereo not given) | nt | 3.4 | nt | 0.8 | 2.6 | -15.9
45 | O=C(Nc1nccs1)c1ccc(-c2ccc(F)c(Cl)c2)o1 | 1.8 | 4.3 | 16.0* | -4.2 | 27.3* | -26.2
46 | Cc1cc2c(NC(=O)Nc3ccc(C(F)(F)F)cc3)cccc2nn1 | 11.7 | -2.1 | 10.6 | nt | 107.6* | nt
47 | CCCCCCSc1cccc(-c2nc3cc(C)ccn3c2NCc2ccccc2)c1 | nt | 9.2 | nt | 2.7 | 1.5 | -26.1
48 | CCCCCCSc1cccc(-c2nc3ccc(C)cn3c2NCc2ccccc2)c1 | 9.8 | 4.2 | 6.5 | -4.0 | 16.1* | -20.1

Bioassay records deposited in PubChem by several laboratories.
